From publication PMC4790291, “Short, Synthetic Cationic Peptides Have Antibacterial Activity against Mycobacterium smegmatis by Forming Pores in Membrane and Synergizing with Antibiotics” (Antibiotics, 2015)
Like-named read-outs stand apart in the source and are kept apart here.

Legend:
[1] = compared to PBS (pH 7); cited from earlier work

SMILES: C[C@H](NC(=O)[C@H](CCCNC(=N)N)NC(=O)[C@@H](N)CCCCN)C(=O)N[C@@H](CCCCN)C(=O)N[C@@H](CCCCN)C(=O)N[C@@H](Cc1ccccc1)C(=O)N[C@@H](Cc1ccccc1)C(=O)N[C@@H](CCCCN)C(=O)N[C@@H](CCCCN)C(=O)N1CCC[C@H]1C(=O)N[C@@H](CCCCN)C(N)=O [ATRA-2]
- EC50 (M. smegmatis mc^2155; 1 × 10^5 CFU per well, 10 mM potassium phosphate buffer pH 7.2 with 0.1% MB7H9, 3 h, 37 °C, CFU plated in triplicate, sigmoidal fit): >100 µg/mL

SMILES: CC[C@H](C)[C@H](NC(=O)[C@@H](NC(=O)[C@H](CCCCN)NC(=O)[C@@H]1CCCN1C(=O)[C@H](CCCCN)NC(=O)[C@H](CCCCN)NC(=O)[C@H](Cc1ccccc1)NC(=O)[C@H](Cc1ccccc1)NC(=O)[C@H](CCCCN)NC(=O)[C@H](CCCCN)NC(=O)[C@H](C)NC(=O)[C@H](CCCNC(=N)N)NC(=O)[C@H](CCCCN)NC(=O)[C@H](CCCCN)NC(=O)[C@@H](NC(=O)[C@H](CO)NC(=O)[C@H](CC(N)=O)NC(=O)[C@H](CCCCN)NC(=O)[C@H](CC(C)C)NC(=O)[C@H](CCCCN)NC(=O)[C@H](CCCCN)NC(=O)[C@H](Cc1ccccc1)NC(=O)[C@H](Cc1ccccc1)NC(=O)[C@H](CCCCN)NC(=O)[C@H](CCCCN)NC(=O)[C@H](Cc1ccccc1)NC(=O)[C@H](CCCNC(=N)N)NC(=O)[C@@H](N)CCCCN)C(C)C)C(C)C)C(=O)NCC(=O)N[C@H](C(=O)N[C@H](C(=O)N[C@@H](Cc1ccccc1)C(=O)N1CCC[C@H]1C(=O)N[C@@H](Cc1ccccc1)C(=O)O)[C@@H](C)O)C(C)C [NA-CATH]
- EC50 (M. smegmatis mc^2155; same assay as μg/mL value, 3 h, 10 mM phosphate buffer): 451 nM
- Hemolysis [1]: did not elicit statistically significant hemolysis
